Test results published in PMC8972196, “A Set of Experimentally Validated Decoys for the Human CC Chemokine Receptor 7 (CCR7) Obtained by Virtual Screening” (Frontiers in Pharmacology, 2022).

Amino acid sequences for entries named in this document (tags omitted).
UniProt P51681, whole entry: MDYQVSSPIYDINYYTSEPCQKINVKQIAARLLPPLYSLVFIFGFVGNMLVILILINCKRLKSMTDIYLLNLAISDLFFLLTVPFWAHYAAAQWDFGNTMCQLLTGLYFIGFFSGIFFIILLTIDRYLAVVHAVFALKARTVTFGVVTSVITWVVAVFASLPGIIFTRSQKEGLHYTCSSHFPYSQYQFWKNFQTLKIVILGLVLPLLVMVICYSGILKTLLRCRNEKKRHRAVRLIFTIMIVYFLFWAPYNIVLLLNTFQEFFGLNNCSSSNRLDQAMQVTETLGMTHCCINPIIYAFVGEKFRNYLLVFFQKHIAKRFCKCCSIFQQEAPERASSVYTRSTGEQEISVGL

Columns and labels:
human CCR5 = target: T1, human CCR5 (Homo sapiens, UniProt P51681); assay type: cell-based; settings: result in words
T1 construct: expressed in transfected cells
Description: U87.CD4 cells that stably express either human CCR7, CXCR2, CCR5 or CXCR4 were seeded (20,000 cells/well) in gelatin-coated black-walled polystyrene 96-well plates with clear bottom and incubated overnight at 37°C and 5% CO2. The next day, a fluorescent Ca^2+-sensitive dye solution (Fluo-2 AM) was prepared as described before ([Claes et al., 2018]). Culture medium was removed, and cells were incubated for 45 min at room temperature in the dark. Meanwhile, 96-well polypropylene plates containing 5-fold concentrated compound dilutions and 5-fold concentrated solution of chemokine ligands (CCL19, CXCL8, LD78-β, CXCL12, respectively; all purchased from PeproTech) were prepared for use with the FLIPR Tetra device (Molecular Devices) as described before ([Claes et al., 2018]). The antagonistic properties of the compounds were calculated based on their capacity to inhibit the Ca^2+ release induced by a fixed concentration of chemokine (i.e. 50 ng/mL final concentration for CCL19, CXCL8 and CXCL12 and 100 ng/ml for LD78-β), as described ([Claes et al., 2018]). Exactly the same protocol was used to record calcium responses in Chinese hamster ovary (CHO)-K1 cells, upon stimulation with adenosine triphosphate (ATP, purchased from Sigma).

human CCR7 = target: T2, human CCR7 (Homo sapiens, UniProt P32248); assay: CCL19-induced calcium mobilization assay, U87.CD4 cells expressing CCR7; assay type: cell-based
T2 construct: expressed in transfected cells
T2 sequence (P32248 25-378): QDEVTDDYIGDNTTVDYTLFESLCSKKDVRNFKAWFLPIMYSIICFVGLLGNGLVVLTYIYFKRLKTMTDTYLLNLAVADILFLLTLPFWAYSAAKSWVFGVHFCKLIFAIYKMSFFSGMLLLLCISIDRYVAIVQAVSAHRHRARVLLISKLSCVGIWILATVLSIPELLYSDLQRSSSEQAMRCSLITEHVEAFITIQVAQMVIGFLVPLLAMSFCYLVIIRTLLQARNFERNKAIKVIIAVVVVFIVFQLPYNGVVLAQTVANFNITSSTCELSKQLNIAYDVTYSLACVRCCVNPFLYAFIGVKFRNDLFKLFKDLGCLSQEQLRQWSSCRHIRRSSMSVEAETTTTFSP
Description: U87.CD4 cells that stably express either human CCR7, CXCR2, CCR5 or CXCR4 were seeded (20,000 cells/well) in gelatin-coated black-walled polystyrene 96-well plates with clear bottom and incubated overnight at 37°C and 5% CO2. […] Culture medium was removed, and cells were incubated for 45 min at room temperature in the dark. […] Exactly the same protocol was used to record calcium responses in Chinese hamster ovary (CHO)-K1 cells, upon stimulation with adenosine triphosphate (ATP, purchased from Sigma).

SMILES | effect on CCR5 mediated calcium response (human CCR5) | CCR7 antagonism in calcium mobilization assay (human CCR7; CCL19-induced, result in words) | Decoy – 0 Active – 1 (human CCR7; classification of tested compounds as decoy or active)
Cc1ccc([C@@H](NC2=NS(=O)(=O)N=C2Nc2ccc(C)c(C(=O)N(C)C)c2O)C(C)(C)C)o1 [Cmp2105] | no (or only very limited) effect |  | 
CC(C)(C)c1ccc(S(=O)(=O)Nc2ccc(Cl)cc2C(=O)c2cc[n+]([O-])cc2)cc1 [Vercirnon, reference compound] |  | absence of activity | 0
